Assay results reported in patent publication US20250381223A1 (UTC THERAPEUTICS SHANGHAI, published 2025).
Residue numbers refer to the chain shown, from its start.

T1: CD123-Fc recombinant protein (human, UniProt P26951 19-305)
T1 construct: construct not described; not shown: Fc part
T1 sequence (looked up): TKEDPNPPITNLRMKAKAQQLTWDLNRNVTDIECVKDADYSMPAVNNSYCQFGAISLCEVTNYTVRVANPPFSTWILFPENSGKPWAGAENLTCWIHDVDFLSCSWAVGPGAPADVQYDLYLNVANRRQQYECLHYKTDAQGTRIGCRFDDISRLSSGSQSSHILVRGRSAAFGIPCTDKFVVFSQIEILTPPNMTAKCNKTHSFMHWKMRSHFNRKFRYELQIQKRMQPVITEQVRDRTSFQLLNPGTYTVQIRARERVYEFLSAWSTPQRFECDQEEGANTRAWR

B1: anti-CD123 scFv-C25 (scFv)
scFv: QSALTQPASVSGPPGQSITISCTGTSSDVGGYNYVSWYQQHPGKAPKLMIYDVSNRPSGVSNRFSGSKSGNTASLTISGLQAEDEADYYCSSYTSSSTWVFGGGTKLTVLGGGGSGGGGSGGGGSEVHLVESGGGLVKPGGSLRLSCAASGFTFSNAWMSWVRQAPGKGLEWVGRIKSKTDGGTTDSAAPVKGRFTISRDDSKNTLYLQMNSLKTEDTAVYYCTTYYFYSSGDMTDYWGQGTLVTVSS
notes: On mRNA-electroporated T cells as CAR
B2: anti-CD123 scFv-C28 (scFv)
scFv: B1 scFv with P13S, T98N, K106E
notes: as for B1
B3: anti-CD123 scFv-C35 (scFv)
scFv: QSVVTQPPSVSAASGQKVTISCSGSSPNIGNNYVSWYQHLPGTAPKLLIYDNNKRPSGIPDRFSGSKSGTSVTLGITGLQTGDEADYYCGTWDSRLNIWVFGGGTKLTVLGGGGSGGGGSGGGGSEVHLVESGGGLVKPGGSLRLSCAASGFTFSNAWMSWVRQAPGKGLEWVGRIKSKTDGGTTDYAAPVKGRFTISRDDSKNTLYLQMNSLKTEDTAVYYCTTEAAGFYYYYYGMDVWGQGTTVTVSS
notes: as for B1

Target: T1, CD123-Fc recombinant protein
Experiment: flow cytometry of T cells electroporated with CAR mRNA, stained with CD123-Fc + PE-anti-hIgG-Fc; Mock 0.36
Description: The CD123 CAR mRNAs obtained in Example 35 above were each introduced into T cells by electroporation according to the following procedures: T cells were collected, washed with the Opti-MEM medium, and resuspended at 1×10e⁷/mL with the Opti-MEM medium; 10 μg of RNA and 100 μL of T cells were aliquoted, mixed well, and electroporated under the following parameters (BTX machine): 500 V, 0.7 ms; the cells were then transferred to a pre-warmed medium and cultured at 37° C. The binding of CD123 CART cells to the CD123-Fc recombinant protein was detected by FACS staining. […] Empty vector (Mock) was a control T cell without CAR molecule. A549 tumor cells were electroporated with different amounts of CD123 mRNA. The electroporation procedure was the same as described above, and only the parameters were changed, with the parameters 300 V, 0.5 ms used. CD123 expression in A549 tumor cells was detected by FACS staining of isotype or anti-CD123 antibodies and A549 cells electroporated with different amounts of CD123 mRNA. […] The cytotoxicity of CD123 CART cells against tumor cells was detected in an in vitro cytotoxicity assay. Tumor cells expressing EGFP or EGFP-A549 cells electroporated with different amounts of tumor antigen were seeded at 3000 cells/100 μL/well into a flat-bottom 96-well plate; CART cells were diluted to a proper concentration and seeded to the 100 μL/well tumor cells according to different E/T ratios (e.g., 10:1, 3:1, or 1:1), and the co-culture plate was placed into the IncuCyte S3 machine and scanning parameters were set. After scanning for 3 days, the total green object integrated intensity (GCU×μm²/well) was analyzed to calculate the killing efficiency.

| Binder | percent of cells in the CD123-Fc positive gate [%] |
| --- | --- |
| B1 | 63.8 |
| B2 | 37.6 |
| B3 | 70 |
